Amino acid sequences for entries named in this document (tags omitted). A change or cut given only in a name is not applied to a line headed by its entry.
UniProt Q9Y572: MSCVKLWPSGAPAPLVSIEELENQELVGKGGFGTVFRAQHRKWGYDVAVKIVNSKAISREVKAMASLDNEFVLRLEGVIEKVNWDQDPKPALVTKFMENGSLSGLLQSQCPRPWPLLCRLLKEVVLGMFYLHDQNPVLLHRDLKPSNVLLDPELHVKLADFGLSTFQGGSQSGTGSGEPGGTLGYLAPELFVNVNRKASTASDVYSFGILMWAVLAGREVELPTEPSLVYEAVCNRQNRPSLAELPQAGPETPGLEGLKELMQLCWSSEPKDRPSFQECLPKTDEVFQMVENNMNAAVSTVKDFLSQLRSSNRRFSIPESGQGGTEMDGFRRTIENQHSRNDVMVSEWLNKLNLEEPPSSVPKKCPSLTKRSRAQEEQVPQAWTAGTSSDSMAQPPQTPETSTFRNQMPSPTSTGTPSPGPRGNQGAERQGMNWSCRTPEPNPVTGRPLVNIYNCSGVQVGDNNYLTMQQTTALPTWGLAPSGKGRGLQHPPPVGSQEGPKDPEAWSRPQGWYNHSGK

In US12583836B2 (Anaxis Pharma Pty Ltd, priority 2020, dated 2026):

The compounds below were run against T1, MLKL (full length) (Homo sapiens, UniProt Q8NB16) (assay: KINOMEscan binding assay, MLKL). Details: equilibrium dissociation constant, class symbols.
T1 construct: purchased DiscoverX (KINOMEscan service); host or cells: E. coli BL21-derived (T7 phage) or HEK293
T1 sequence (Q8NB16 1-471): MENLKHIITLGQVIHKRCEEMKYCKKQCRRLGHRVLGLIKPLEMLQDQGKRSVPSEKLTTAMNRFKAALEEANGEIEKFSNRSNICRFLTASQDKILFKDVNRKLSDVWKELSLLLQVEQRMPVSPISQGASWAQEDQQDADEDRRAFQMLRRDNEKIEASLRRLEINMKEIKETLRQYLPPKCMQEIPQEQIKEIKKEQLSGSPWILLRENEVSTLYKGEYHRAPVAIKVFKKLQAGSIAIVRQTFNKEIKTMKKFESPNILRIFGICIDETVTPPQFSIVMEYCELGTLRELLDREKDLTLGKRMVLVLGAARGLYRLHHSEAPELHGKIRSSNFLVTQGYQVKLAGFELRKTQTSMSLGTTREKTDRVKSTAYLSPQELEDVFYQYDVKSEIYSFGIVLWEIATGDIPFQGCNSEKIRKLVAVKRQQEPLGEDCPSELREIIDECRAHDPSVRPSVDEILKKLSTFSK

Structure (SMILES)	Kd [nM]
CCS(=O)(=O)Nc1ccc(-c2n[nH]c(Nc3cnccn3)c2C(N)=O)cc1OCc1ccc(OC(F)(F)F)cc1 [Compound 215, 3-(4-(ethylsulfonamido)-3-((4-(trifluoromethoxy)benzyl)oxy)phenyl)-5-(pyrazin-2-ylamino)-1H-pyrazole-4-carboxamide]	10 to 1000
CCS(=O)(=O)Nc1ccc(-c2n[nH]c(Nc3cnccn3)c2C(N)=O)cc1OCc1cccc(C(F)(F)F)c1 [Compound 218, 3-(4-(ethylsulfonamido)-3-((3-(trifluoromethyl)benzyl)oxy)phenyl)-5-(pyrazin-2-ylamino)-1H-pyrazole-4-carboxamide]	10 to 1000
CCS(=O)(=O)Nc1ccc(-c2n[nH]c(Nc3ccc4cc(Cl)ccc4n3)c2C(N)=O)cc1OCc1ccc(F)cc1 [Compound 220, 5-((6-chloroquinolin-2-yl)amino)-3-(4-(ethylsulfonamido)-3-((4-fluorobenzyl)oxy)phenyl)-1H-pyrazole-4-carboxamide]	10 to 1000
C[C@H](Oc1cc(NS(=O)(=O)CC(F)(F)F)ccc1-c1n[nH]c(Nc2cnccn2)c1C(N)=O)c1ccc(F)cc1 [Compound 244, 3-{2-[(1S)-1-(4-fluorophenyl)ethoxy]-4-(2,2,2-trifluoroethanesulfonamido)phenyl}-5-[(pyrazin-2-yl)amino]-1H-pyrazole-4-carboxamide]	10 to 1000
C[C@H](Oc1cc(-c2n[nH]c(Nc3cnccn3)c2C(N)=O)ccc1NS(=O)(=O)CC(F)(F)F)c1ccccn1 [Compound 267, 5-[(pyrazin-2-yl)amino]-3-{3-[(1S)-1-(pyridin-2-yl)ethoxy]-4-(2,2,2-trifluoroethanesulfonamido)phenyl]-1H-pyrazole-4-carboxamide]	< 10
Cc1cnc(Nc2[nH]nc(-c3ccc(NS(=O)(=O)C(F)F)c(OCc4ccc(F)c(F)c4)c3)c2C(N)=O)cn1 [Compound 291, 3-(3-((3,4-difluorobenzyl)oxy)-4-((difluoromethyl)sulfonamido)phenyl)-5-((5-methylpyrazin-2-yl)amino)-1H-pyrazole-4-carboxamide]	< 10
C[C@H](Oc1cc(-c2n[nH]c(Nc3cc(C4CCOCC4)on3)c2C(N)=O)ccc1NS(=O)(=O)C(F)F)c1ccc(F)cc1 [Compound 303, (S)-3-(4-((difluoromethyl)sulfonamido)-3-(1-(4-fluorophenyl)ethoxy)phenyl)-5-((5-(tetrahydro-2H-pyran-4-yl)isoxazol-3-yl)amino)-1H-pyrazole-4-carboxamide]	< 10
C[C@H](Oc1cc(-c2n[nH]c(Nc3cnn(C4CCOCC4)c3)c2C(N)=O)ccc1NS(=O)(=O)C(F)F)c1ccc(F)cc1 [Compound 306, (S)-3-(4-((difluoromethyl)sulfonamido)-3-(1-(4-fluorophenyl)ethoxy)phenyl)-5-((1-(tetrahydro-2H-pyran-4-yl)-1H-pyrazol-4-yl)amino)-1H-pyrazole-4-carboxamide]	< 10
C[C@H](Oc1cc(-c2n[nH]c(Nc3cc(C(F)F)on3)c2C(N)=O)ccc1NS(=O)(=O)C(F)F)c1ccc(F)cc1 [Compound 314, (S)-5-((5-(difluoromethyl)isoxazol-3-yl)amino)-3-(4-((difluoromethyl)sulfonamido)-3-(1-(4-fluorophenyl)ethoxy)phenyl)-1H-pyrazole-4-carboxamide]	< 10

The next lines start with the values.

Kd [nM]	Structure (SMILES)
< 10	NC(=O)c1c(-c2ccc(NS(=O)(=O)C(F)F)c(OCc3ccc(F)c(F)c3)c2)n[nH]c1Nc1ccccn1 [Compound 226]
< 10	CCS(=O)(=O)Nc1ccc(-c2n[nH]c(Nc3cnccn3)c2C(N)=O)cc1OC(C)(C)c1ccc(F)cc1 [Compound 228, 3-(4-ethanesulfonamido-3-{[2-(4-fluorophenyl)propan-2-yl]oxy}phenyl)-5-[(pyrazin-2-yl)amino]-1H-pyrazole-4-carboxamide]
< 10	C[C@H](Oc1cc(-c2n[nH]c(Nc3cccc(C(F)(F)F)n3)c2C(N)=O)ccc1NS(=O)(=O)C(F)F)c1ccc(F)cc1 [Compound 229, 3-[4-(difluoromethanesulfonamido)-3-[(1S)-1-(4-fluorophenyl)ethoxy]phenyl]-5-{[6-(trifluoromethyl)pyridin-2-yl]amino}-1H-pyrazole-4-carboxamide]
< 10	CCS(=O)(=O)Nc1ccc(-c2n[nH]c(Nc3cnccn3)c2C(N)=O)cc1OC1CCCc2ccccc21 (stereo not shown) [Compound 232, 3-[4-ethanesulfonamido-3-(1,2,3,4-tetrahydronaphthalen-1-yloxy)phenyl]-5-[(pyrazin-2-yl)amino]-1H-pyrazole-4-carboxamide]
< 10	NC(=O)c1c(-c2ccc(NS(=O)(=O)C(F)F)c(OCc3ccc(Cl)cc3)c2)n[nH]c1Nc1cnc(C(F)(F)F)cn1 [Compound 235, 3-(3-((4-chlorobenzyl)oxy)-4-((difluoromethyl)sulfonamido)phenyl)-5-((5-(trifluoromethyl)pyrazin-2-yl)amino)-1H-pyrazole-4-carboxamide]
< 10	N#Cc1cccc(Nc2[nH]nc(-c3ccc(NS(=O)(=O)CC(F)(F)F)cc3)c2C(N)=O)n1 [Compound 237, 5-[(6-cyanopyridin-2-yl)amino]-3-[4-(2,2,2-trifluoroethanesulfonamido)phenyl]-1H-pyrazole-4-carboxamide]
< 10	NC(=O)c1c(-c2ccc(NS(=O)(=O)CC(F)(F)F)c(OCc3ccc(F)cn3)c2)n[nH]c1Nc1ccccn1 [Compound 240, 3-{3-[(5-fluoropyridin-2-yl)methoxy]-4-(2,2,2-trifluoroethanesulfonamido)phenyl}-5-[(pyridin-2-yl)amino]-1H-pyrazole-4-carboxamide]
< 10	C[C@H](Oc1cc(-c2n[nH]c(Nc3cccc(C(F)(F)F)n3)c2C(N)=O)ccc1NS(=O)(=O)CC(F)(F)F)c1ccc(F)cc1 [Compound 249, 3-{3-[(1S)-1-(4-fluorophenyl)ethoxy]-4-(2,2,2-trifluoroethane-sulfonamido)phenyl}-5-{[6-(trifluoromethyl)pyridin-2-yl]amino}-1H-pyrazole-4-carboxamide]
< 10	NC(=O)c1cccc(Nc2[nH]nc(-c3ccc(NS(=O)(=O)C(F)F)cc3)c2C(N)=O)n1 [Compound 257, 6-({4-carbamoyl-3-[4-(difluoromethanesulfonamido)phenyl]-1H-pyrazol-5-yl}amino)pyridine-2-carboxamide]
< 10	NC(=O)c1c(-c2ccc(NS(=O)(=O)CC(F)(F)F)c(OCc3ccc(Cl)cn3)c2)n[nH]c1Nc1cnccn1 [Compound 262, 3-{3-[(5-chloropyridin-2-yl)methoxy]-4-(2,2,2-trifluoroethane-sulfonamido)phenyl}-5-[(pyrazin-2-yl)amino]-1H-pyrazole-4-carboxamide]
< 10	NC(=O)c1c(-c2ccc(NS(=O)(=O)CC(F)(F)F)c(OC(c3ccc(F)cc3)C3CCC3)c2)n[nH]c1Nc1cnccn1 (stereo not shown) [Compound 266, 3-{3-[cyclobutyl(4-fluorophenyl)methoxy]-4-(2,2,2-trifluoroethanesulfonamido)phenyl}-5-[(pyrazin-2-yl)amino]-1H-pyrazole-4-carboxamide]

The compounds below were run against T2, RIP3 (Homo sapiens, UniProt Q9Y572) (assay: KINOMEscan binding assay, RIP3). Details: equilibrium dissociation constant, class symbols.
T2 construct: purchased DiscoverX (KINOMEscan service); host or cells: E. coli BL21-derived (T7 phage) or HEK293

Kd [nM]	Structure (SMILES)
> 30000	CCC(Oc1cc(-c2n[nH]c(Nc3cnccn3)c2C(N)=O)ccc1NS(=O)(=O)C(F)F)c1ccc(F)cc1 (racemic) [Compound 233, 3-[4-(difluoromethanesulfonamido)-3-[1-(4-fluorophenyl)propoxy]phenyl]-5-[(pyrazin-2-yl)amino]-1H-pyrazole-4-carboxamide]
> 30000	COC[C@H](Cc1cc(-c2n[nH]c(Nc3cnccn3)c2C(N)=O)ccc1NS(=O)(=O)C(F)F)c1ccc(F)cc1 (single isomer, unassigned) [Compound 272]
